This is an account of results in ChEMBL document CHEMBL4725342, “Design, synthesis and structure-activity relationship study of piperazinone-containing thieno[3,2-d]pyrimidine derivatives as new PI3Kδ inhibitors” (Bioorg Med Chem Lett, 2020).

The experiment is filed under the species Homo sapiens. Briefly: Selectivity index, ratio of IC50 for PI3Kalpha (unknown origin) to IC50 for PI3Kdelta (unknown origin).

Turning to `C=CCN1CCN(Cc2cc3nc(-n4c(CC)nc5ccccc54)nc(N4CCOCC4)c3s2)C(=O)C1`, the Ratio IC50 stood at 184. On to `CCc1nc2ccccc2n1-c1nc(N2CCOCC2)c2sc(CN3CCN(C4CCCC4)CC3=O)cc2n1`, for which the Ratio IC50 stood at 84. As for `CCc1nc2ccccc2n1-c1nc(N2CCOCC2)c2sc(CN3CCN(C(=O)C4CCC4)CC3=O)cc2n1`, the Ratio IC50 is 84.

Turning to `CCc1nc2ccccc2n1-c1nc(N2CCOCC2)c2sc(CN3CCN(C4CCCC4)C(=O)C3)cc2n1`, the Ratio IC50 turned out to be 119. `CCc1nc2ccccc2n1-c1nc(N2CCOCC2)c2sc(CN3CCN(C(=O)C4CC4)CC3=O)cc2n1`: the Ratio IC50 was 76.
